In general, pEC50 refers to −log10 of the EC50, conventionally taken in molar units.

Sequences of proteins named here, by UniProt entry; tags and fusion partners are left off.
UniProt P08588, whole entry: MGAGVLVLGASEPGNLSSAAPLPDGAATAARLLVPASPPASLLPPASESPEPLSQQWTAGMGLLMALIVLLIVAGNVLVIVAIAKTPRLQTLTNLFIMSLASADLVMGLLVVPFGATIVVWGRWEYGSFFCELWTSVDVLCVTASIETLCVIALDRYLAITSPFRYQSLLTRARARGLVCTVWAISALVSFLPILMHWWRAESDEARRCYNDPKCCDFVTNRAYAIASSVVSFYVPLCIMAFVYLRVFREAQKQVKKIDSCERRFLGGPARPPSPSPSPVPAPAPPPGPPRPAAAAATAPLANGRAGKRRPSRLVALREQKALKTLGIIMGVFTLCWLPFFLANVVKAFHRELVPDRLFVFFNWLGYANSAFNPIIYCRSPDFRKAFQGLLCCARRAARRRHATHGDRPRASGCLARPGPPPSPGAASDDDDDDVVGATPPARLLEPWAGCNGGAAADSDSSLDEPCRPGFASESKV

SMILES strings stand for the structures. pEC50: −log10 of the molar value.

This is an account of results in ChEMBL document CHEMBL1806408, “Design-driven LO: the discovery of new ultra long acting dibasic β2-adrenoceptor agonists” (Bioorg Med Chem Lett, 2011).

The species named for one test is Cavia porcellus. In words: animal or person. As to conditions: inhaled or nasal.
Test [1] addresses Beta-1 adrenergic receptor (Homo sapiens, UniProt P08588).

On to `COc1ccc(CC(C)NCC(O)c2ccc(O)c(NC=O)c2)cc1` (stereo not drawn) [FORMOTEROL], for which, in the test filed under Cavia porcellus, the ED80 is 1 µg/kg.

As to `O=c1[nH]c2c(O)ccc([C@@H](O)CNCCSCCCNCCc3cccc(Cl)c3Cl)c2s1`, in test [1], the pEC50 is 7.00.

Consider `O=c1[nH]c2c(O)ccc([C@@H](O)CNCCOCCCNCCc3cccc(Cl)c3)c2s1`, for which the pEC50 in test [1] was 7.50.
